By UniProt entry, the sequences of proteins in these tests, tags left out.
UniProt P28223, whole entry: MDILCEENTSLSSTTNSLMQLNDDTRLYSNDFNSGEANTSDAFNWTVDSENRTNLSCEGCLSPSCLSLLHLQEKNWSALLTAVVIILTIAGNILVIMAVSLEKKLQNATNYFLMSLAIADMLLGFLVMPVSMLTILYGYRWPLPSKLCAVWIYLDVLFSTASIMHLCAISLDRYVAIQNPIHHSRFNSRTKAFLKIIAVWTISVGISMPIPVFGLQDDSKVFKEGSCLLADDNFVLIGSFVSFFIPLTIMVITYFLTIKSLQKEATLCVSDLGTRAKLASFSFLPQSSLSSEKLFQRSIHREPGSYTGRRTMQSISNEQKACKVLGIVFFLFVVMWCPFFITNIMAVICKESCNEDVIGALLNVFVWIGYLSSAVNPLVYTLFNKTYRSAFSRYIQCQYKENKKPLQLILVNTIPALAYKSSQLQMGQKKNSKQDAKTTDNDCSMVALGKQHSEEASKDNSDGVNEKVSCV
UniProt Q923Y8, whole entry: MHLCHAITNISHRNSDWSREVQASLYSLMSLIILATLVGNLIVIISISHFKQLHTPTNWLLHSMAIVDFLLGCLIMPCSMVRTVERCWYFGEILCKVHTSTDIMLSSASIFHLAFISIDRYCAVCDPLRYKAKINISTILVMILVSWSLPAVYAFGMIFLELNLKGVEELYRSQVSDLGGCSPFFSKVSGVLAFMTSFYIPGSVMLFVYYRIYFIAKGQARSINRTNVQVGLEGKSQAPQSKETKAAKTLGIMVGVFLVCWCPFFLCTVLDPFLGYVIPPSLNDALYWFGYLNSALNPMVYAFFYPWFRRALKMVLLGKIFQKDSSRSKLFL
UniProt Q923Y9, whole entry: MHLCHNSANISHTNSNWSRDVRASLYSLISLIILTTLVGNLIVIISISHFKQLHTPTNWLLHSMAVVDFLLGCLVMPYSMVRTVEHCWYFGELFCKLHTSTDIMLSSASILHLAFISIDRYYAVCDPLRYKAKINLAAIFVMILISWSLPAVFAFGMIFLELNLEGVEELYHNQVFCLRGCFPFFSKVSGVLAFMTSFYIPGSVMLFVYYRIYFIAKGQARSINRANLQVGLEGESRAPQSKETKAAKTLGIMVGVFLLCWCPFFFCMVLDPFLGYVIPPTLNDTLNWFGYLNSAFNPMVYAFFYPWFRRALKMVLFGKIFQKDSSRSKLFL

In article PMC6893898, “Receptor Interaction Profiles of 4-Alkoxy-Substituted 2,5-Dimethoxyphenethylamines and Related Amphetamines” (Frontiers in Pharmacology, 2019):

Columns and labels:
[1] = target: 5-HT2A receptor (Homo sapiens, UniProt P28223); type: binding; set-up: expressed in transfected cells; host or cells: HEK 293 (membrane preparation)
[2] = target: T1, mouse TAAR1 (Mus musculus, UniProt Q923Y8); test: Radioligand binding, mouse TAAR1 ([3H]RO5166017)
T1 construct: expressed in transfected cells; host or cells: HEK 293 (membrane preparation)

[3] = target: T2, rat TAAR1 (Rattus norvegicus, UniProt Q923Y9); test: Radioligand binding, rat TAAR1 ([3H]RO5166017); details: for Increase in TAAR1 binding affinity compared to 2C-O-21 (9): rat TAAR1 by context
T2 construct: expressed in transfected cells; host or cells: HEK 293 (membrane preparation)

## C=CCOc1cc(OC)c(CC(C)N)cc1OC (stereo not shown) [MALM, 4-allyloxy-2,5-dimethoxyamphetamine]
[1]
  Increase in 5-HT2A binding affinity compared to TMA-2 (19): up to 9 fold

## C=C(C)COc1cc(OC)c(CCN)cc1OC [2C-O-3, 2,5-dimethoxy-4-methallyloxyphenethylamine]
[2]
  Increase in mouse TAAR1 binding affinity compared to 2C-O-2 (6): 4 fold
[3]
  Increase in rat TAAR1 binding affinity compared to 2C-O-2 (6): 3 fold
[1]
  Increase in 5-HT2A binding affinity compared to 2C-O-2 (6): 17 fold

## COc1cc(OCC(F)F)c(OC)cc1CCN [2C-O-21.5, 4-(2,2-difluoroethoxy)-2,5-dimethoxyphenethylamine]
[3]
  Increase in TAAR1 binding affinity compared to 2C-O-21 (9): 2 fold
[1]
  Increase in 5-HT2A binding affinity compared to 2C-O-21 (9): 2 fold

## COc1cc(OCc2ccccc2)c(OC)cc1CCN [2C-O-27, 4-benzyloxy-2,5-dimethoxyphenethylamine]
[2]
  Increase in mouse TAAR1 binding affinity compared to 2C-O-2 (6): 6 fold
[3]
  Increase in rat TAAR1 binding affinity compared to 2C-O-2 (6): 16 fold

## COc1cc(OCC(F)F)c(OC)cc1CC(C)N (stereo not shown) [MDFEM, 4-(2,2-difluoroethoxy)-2,5-dimethoxyamphetamine]
[1]
  Increase in 5-HT2A binding affinity compared to monofluorinated 15: 2 fold

## COc1cc(OCC(F)(F)F)c(OC)cc1CC(C)N (stereo not shown) [MTFEM, 2,5-dimethoxy-4-(2,2,2-trifluoroethoxy)amphetamine]
[1]
  Increase in 5-HT2A binding affinity compared to monofluorinated 15: 4 fold

## C=C(C)COc1cc(OC)c(CC(C)N)cc1OC (stereo not shown) [MMALM, 2,5-dimethoxy-4-methallyloxyamphetamine]
[1]
  Increase in 5-HT2A binding affinity compared to TMA-2 (19): 21 fold

## COc1cc(OCC(F)(F)F)c(OC)cc1CCN [2C-O-22, 2,5-dimethoxy-4-(2,2,2-trifluoroethoxy)phenethylamine]
[3]
  Increase in TAAR1 binding affinity compared to 2C-O-21 (9): 2 fold
[1]
  Increase in 5-HT2A binding affinity compared to 2C-O-21 (9): 4 fold

## C=CCOc1cc(OC)c(CCN)cc1OC [2C-O-16, 4-allyloxy-2,5-dimethoxyphenethylamine]
[2]
  Increase in mouse TAAR1 binding affinity compared to 2C-O-2 (6): 2 fold
[3]
  Increase in rat TAAR1 binding affinity compared to 2C-O-2 (6): ~2 fold
[1]
  Increase in 5-HT2A binding affinity compared to 2C-O-2 (6): 5 fold
